Patent publication US20140343118A1, “METHODS OF TREATMENT USING ARYLCYCLOPROPYLAMINE COMPOUNDS” (Duke University, priority 2013, published 2014)

By UniProt entry, the sequences of proteins in these tests, tags left out.
UniProt P27338, whole entry: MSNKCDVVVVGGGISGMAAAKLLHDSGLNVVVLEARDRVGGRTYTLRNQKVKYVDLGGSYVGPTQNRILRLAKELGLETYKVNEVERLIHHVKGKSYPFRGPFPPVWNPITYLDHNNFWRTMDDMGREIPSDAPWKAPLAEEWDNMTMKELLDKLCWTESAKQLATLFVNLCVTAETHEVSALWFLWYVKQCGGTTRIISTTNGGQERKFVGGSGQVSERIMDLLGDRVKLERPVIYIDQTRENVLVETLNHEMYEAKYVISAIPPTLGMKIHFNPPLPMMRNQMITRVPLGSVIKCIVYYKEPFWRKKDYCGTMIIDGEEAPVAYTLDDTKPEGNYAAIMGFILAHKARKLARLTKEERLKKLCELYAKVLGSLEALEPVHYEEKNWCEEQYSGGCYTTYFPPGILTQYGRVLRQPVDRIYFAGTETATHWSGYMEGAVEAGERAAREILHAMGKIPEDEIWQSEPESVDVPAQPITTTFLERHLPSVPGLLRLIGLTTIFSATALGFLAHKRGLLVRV

Biological target: MAO B (Homo sapiens, UniProt P27338)
Assay: Inhibition kinetics of MAO B

N[C@@H]1C[C@H]1c1ccccc1 (relative stereo) [Compound 2-PCPA]
inactivation of MAO B: capable of inactivating MAO B
